From patent US20260151519A1 (AKTIS ONCOLOGY, published 2026) come the findings set out here.

The chains behind the UniProt entries cited, without tags or fusion partners. Residues count along the entry.
UniProt Q9NQS3, 58-549: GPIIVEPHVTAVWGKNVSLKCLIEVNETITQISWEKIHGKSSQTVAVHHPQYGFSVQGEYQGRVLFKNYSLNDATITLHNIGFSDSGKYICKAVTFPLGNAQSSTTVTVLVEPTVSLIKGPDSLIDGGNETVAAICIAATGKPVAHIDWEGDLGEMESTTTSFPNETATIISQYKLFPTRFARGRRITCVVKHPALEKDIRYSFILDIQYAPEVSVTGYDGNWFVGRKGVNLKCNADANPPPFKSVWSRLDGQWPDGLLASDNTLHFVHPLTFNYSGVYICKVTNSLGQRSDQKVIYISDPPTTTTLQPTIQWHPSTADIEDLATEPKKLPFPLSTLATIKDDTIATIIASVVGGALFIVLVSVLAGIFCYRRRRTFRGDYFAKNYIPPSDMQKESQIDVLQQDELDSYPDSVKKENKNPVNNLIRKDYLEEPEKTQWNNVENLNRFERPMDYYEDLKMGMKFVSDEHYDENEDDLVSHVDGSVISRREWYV

The experiment deals with T1, Nectin-3 (human, UniProt Q9NQS3 58-549).
T1 construct: whole, on cells; Plasma membrane, non-tethered secreted and tethered secreted forms in the library
Briefly: cell microarray on HEK293 cells, pooled compounds. As for the experimental part: Initially, two pools of compounds were tested. Pool #1 consisted of C190, C197, and C208, and pool #2 consisted of C247, C253, and C259 at 2 μg/mL for each molecule. To perform this assay, HEK293 cells were plated on a dish and localized spots of cells were transiently over-expressed with a single cDNA encoding for GFP and one of the 6,416 targets. Included in this library were multiple clones for the Nectin family members, including plasma membrane, non-tethered secreted, and tethered secreted forms of Nectin-1, 2, 3, and 4. Secreted protein targets were tethered to the plasma membrane to aid in detection. The molecule pools were incubated on the fixed, over-expressing cell microarrays (n=2 per protein), and binding was visualized using Alexa Fluor 647 streptavidin fluorescence. All transfection efficiencies exceeded minimum thresholds for the microarray expression targets. In total, 18 library preliminary interactions (including some target clone duplicates) were identified, including Nectin-4, but no other Nectin family members were identified.

B1: C208 (designed binder)
chain: CDYDEQFFTALKRLRGADICEYIQASFQYLPGECIEEILDNLGCS
modifications: N-term Biotin-PEG4
As to B1, the binding result is “no binding (tested: 2 µg/mL)”.

B2: C190 (designed binder)
chain: CDYDEQFFTALKRLRGGDICEYIQASFQYLPGLCIEEILDNLGCS
modifications: N-term Biotin-PEG4
For the molecule B2, the binding result is on record as “no binding (tested: 2 µg/mL)”.

B3: C197 (designed binder)
chain: CEYDEQFFTALKRLRGDDICDYIQASFQYLPGLCIEEILDNLGCS
modifications: N-term Biotin-PEG4
For the molecule B3, the binding result was “no binding (tested: 2 µg/mL)”.

B4: C247 (designed binder)
chain: CDYDEQFFTALARLRGADICEYIQASFQYLPGECIEEILDNLGCS
modifications: N-term Biotin-PEG4
Regarding B4, the binding result is on record as “no binding (tested: 2 µg/mL)”.

B5: C253 (designed binder)
chain: CEYDEEFFTALARLRGGDICQYIQAKFQYLPALCIEEILDNLGCS
modifications: N-term Biotin-PEG4; Kme3 at 26
On to B5, for which the binding result was “no binding (tested: 2 µg/mL)”.
